Laboratory results from PubChem BioAssay AID743397 (Broad Institute, 2014).
Only a part is listed here, and it is no random draw. Some tests of the compounds listed are not included; inactive here does not mean inactive elsewhere. The source made the active and inactive calls.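 Rule for the calls: active = mean replicate inhibition of at least 30% and at least 1% of replicates passing that level; inconclusive = only one of the two criteria is met; inactive = neither criterion is met.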

The compounds below were run on Voltage-dependent L-type calcium channel subunit alpha-1D (CaV1.3) ICDI/IQ interaction (assay: Primary screen for inhibitors of IQ motif and Ca2+-dependent inactivation inhibitor domain binding in CACNA1D, Förster resonance energy transfer in living cells, single-concentration test (AID 743397;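 note: 0% = median of the neutral control wells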)). Conditions: HEK cells, CFP/YFP FRET ICDI-IQ, plate reader, 10 min; at 12.3 µM; hits give high values; percent FRET-ratio fall versus neutral wells.
For `COc1ccc(Br)c(C(=O)NCC2(N3CCCCC3)CCCCC2)c1`, the inhibition was inactive: 2.73%.
`C=C(C)C#CC(O)(C(=O)OC1CCN(C)CC1)c1ccccc1` (centres undefined) was tested, and the inhibition was inactive: -5.68%.
With `CN(C)c1cccc(C(=O)NCC2(N(C)C)CCCCC2)c1` the inhibition was inactive: 0.151%.
With `CC(C)Oc1ccc(C(=O)NCC2(N(C)C)CCCCC2)cc1` the inhibition was inactive: -3.8%.
For `O=C(OCCN1CCCC1)C(O)(c1ccccc1)c1ccccc1`, the inhibition was inactive: -7.56%.
For `COc1cccc(C(=O)NCC2(N3CCCCC3)CCCCC2)c1`, the inhibition was inactive: -3.54%.
With `COc1ccc(Cl)cc1C(=O)NCC1(N(C)C)CCCCC1` the inhibition was inactive: -3.85%.
`O=C(NCC1(N2CCCCC2)CCCCC1)c1cccc(Cl)c1` was tested, and the inhibition was inactive: -3.43%.
For `CN(C)C1(CNC(=O)c2ccc(Br)cc2)CCCCC1`, the inhibition was inactive: -19.2%.
In the case of `COc1cc(C(=O)NCC2(N(C)C)CCCCC2)c([N+](=O)[O-])cc1OC`, the inhibition is reported as inactive: -13.2%.
`C=CCN1CCN(CCOC(=O)C(O)(c2ccccc2)c2ccccc2)CC1` was tested, and the inhibition was inactive: -6.65%.
For `O=C(NCC1(N2CCCCC2)CCCCC1)c1cc(F)c(F)cc1Cl`, the inhibition was inactive: -6.82%.
For `Cc1cc(C(=O)NCC2(N3CCCCC3)CCCCC2)ccc1[N+](=O)[O-]`, the inhibition was inactive: -2.18%.
With `CCN1CCCC(OC(=O)C2(O)c3ccccc3C=Cc3ccccc32)C1` (centres undefined) the inhibition was inactive: -4.14%.
In the case of `O=C(NCC1(N2CCCCC2)CCCCC1)c1cccc(Br)c1`, the inhibition is reported as inactive: -4.76%.
For `COc1ccc(C(=O)NCC2(N(C)C)CCCCC2)cc1`, the inhibition was inactive: -19.3%.
With `Cc1ccccc1C(=O)NCC1(N2CCCCC2)CCCCC1` the inhibition was inactive: -3.94%.
For `CN(C)C1CCCC1OC(=O)C(O)(c1ccccc1)c1ccccc1` (centres undefined), the inhibition was inactive: -3.09%.
For `CN(C)c1ccc(C(=O)NCC2(N(C)C)CCCCC2)cc1`, the inhibition was inactive: -2.19%.
In the case of `CCN(CC)CC(C)C(C)OC(=O)C(O)(c1ccccc1)c1ccccc1` (centres undefined), the inhibition is reported as inactive: -6.21%.
In the case of `COc1cc(SC)ccc1C(=O)NCC1(N(C)C)CCCCC1`, the inhibition is reported as inactive: -17.3%.
In the case of `Cc1ccc(C(=O)NCC2(N3CCCCC3)CCCCC2)cc1`, the inhibition is reported as inactive: -3.91%.
In the case of `O=C(NCC1(N2CCCCC2)CCCCC1)c1cc([N+](=O)[O-])ccc1Cl`, the inhibition is reported as inactive: -2.38%.
`CN1[C@@H]2CC[C@H]1CC(OC(=O)C(O)(c1ccccc1)c1ccccc1)C2` (some centres undefined) was tested, and the inhibition was inactive: -5.1%.
